# Test system: CD19+ B cells
# Test: Targeted binding of β-glucan and β-glucan-ERBITUX conjugate to CD19+ B cells in whole blood
# Design: species or system human
# Settings: 10 μg/mL, 30 minutes at 37° C.
# Procedure: Whole blood was incubated with 10 μg/mL IMPRIME PGG, ERBITUX (Eli Lilly and Co., New York, N.Y. and Bristol-Myers Squibb Co., Princeton, N.J.), ERBITUX-IMPRIME PGG conjugate, or citrate buffer (as a control) for 30 minutes at 37° C. Cells were washed twice with PBS before staining with the β-glucan specific antibody BfD IV (U.S. Pat. No. 6,294,321). Cells were washed again and stained with an antibodies specific for human IgG to detect ERBITUX and CD19 to label B cells. Cells were analyzed on and LSRII flow cytometer and the groups were compared by gating on CD19^+ B cells.
substance,measurement,value
ERBITUX-IMPRIME PGG conjugate: ERBITUX conjugated to a β-glucan (IMPRIME PGG),anti-human IgG binding on CD19+ B cells,increase in anti-human IgG binding
same,β-glucan detected on CD19+ B cells with anti-β-glucan antibody BfD IV,positive for β-glucan

# Reference: US9943607B2, “Beta-glucan compounds, compositions, and methods” (Biothera, Inc., priority 2011, dated 2018)
